scFv variants of Ab-14 (light chain) against a SARS-CoV-2 spike peptide

The target is the same throughout: PDVDLGDISGINAS, from the HR2 region of SARS-CoV-2 spike.

The variants keep the heavy chain, the linker and the frameworks of Ab-14 (scFv order VH, the linker GGGGSGGGGSGGGGS, VL).
VH: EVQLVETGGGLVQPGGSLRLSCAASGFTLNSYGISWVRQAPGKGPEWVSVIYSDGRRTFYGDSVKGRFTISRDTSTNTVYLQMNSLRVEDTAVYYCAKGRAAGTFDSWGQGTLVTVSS
VL: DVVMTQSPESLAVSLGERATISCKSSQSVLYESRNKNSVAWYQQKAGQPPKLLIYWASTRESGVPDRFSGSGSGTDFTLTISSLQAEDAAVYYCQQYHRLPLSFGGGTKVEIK

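The starting antibody came from a phage panning campaign against this peptide. Variants in AAYL50 differ from the parent at up to three CDR positions; double and triple changes were sampled at random. In AlphaSeq, yeast of one mating type display the scFv and yeast of the other type display the target. Mating (16 h, 30 °C) was followed by selection of diploids and sequencing of their barcodes. Read counts were normalised to the haploid input and turned into Kd by a linear fit to BCL2-family pairs of known affinity, for each replicate. There are three technical replicates.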

Sequences are complete VL domains. Numbers give log10(Kd / nM), so 0 is 1 nM and 3 is 1 µM. Smaller is tighter. A mean of the replicates is given; it leaves out those without a signal. A pair that was not seen in that replicate is written "ND"; this usually means weak binding, but a binder can also be missed.

| VL | log10 Kd, replicates | log10 Kd (nM), mean | control signals |
|---|---|---|---|
| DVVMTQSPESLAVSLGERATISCKSSQSQGYESRNKNSVAWYQQKAGQPPKLLIYWASTKESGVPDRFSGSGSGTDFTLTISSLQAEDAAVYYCQQYHRLPLSFGGGTKVEIK | ND / ND / ND | ND | 0/9 |
| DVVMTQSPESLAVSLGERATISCASSQSVLYESRNKNSVAWYQQKAGQPPKLLIYWASTRESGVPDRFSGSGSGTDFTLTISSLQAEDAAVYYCQQYHRLPLKFGGGTKVEIK | 2.49 / ND / ND | 2.49 | 0/9 |
| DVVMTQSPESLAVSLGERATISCKSSQSVLYESRNKPSVAWYQQKAGQPPKLLIYWASTRGSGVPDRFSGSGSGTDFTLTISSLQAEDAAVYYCQQYHRLRLSFGGGTKVEIK | 2.37 / ND / 2.68 | 2.52 | 0/9 |
| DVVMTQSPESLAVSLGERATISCKMLQSVLYESRNKNSVAWYQQKAGQPPKLLIYWASTRESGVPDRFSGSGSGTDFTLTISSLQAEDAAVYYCQQYHCLPLSFGGGTKVEIK | 2.16 / 2.28 / 2.03 | 2.15 | 1/9 (3.43) |
| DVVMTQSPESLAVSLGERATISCKSSQSVRYESRNKNSVAWYQQKAGQPPKLLIYFASTRESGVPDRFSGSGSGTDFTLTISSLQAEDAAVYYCQQYKRLPLSFGGGTKVEIK | ND / 2.38 / ND | 2.38 | 0/9 |
| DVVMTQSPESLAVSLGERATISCKSSPSVLYESRSKKSVAWYQQKAGQPPKLLIYWASTRESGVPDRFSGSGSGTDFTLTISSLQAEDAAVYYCQQYHRLPLSFGGGTKVEIK | 2.23 / 2.15 / 2.11 | 2.16 | 3/9 (3.89) |
| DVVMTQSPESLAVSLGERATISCKSSQSVLYESRNKNSVAWYQQKAGQPPKLLIYWCSTRESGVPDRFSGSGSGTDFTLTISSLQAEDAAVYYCQQYHRVWLSFGGGTKVEIK | ND / ND / ND | ND | 0/9 |
| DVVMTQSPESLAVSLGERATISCKRSQSVLYEPRNDNSVAWYQQKAGQPPKLLIYWASTRESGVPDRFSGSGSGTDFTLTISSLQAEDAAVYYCQQYHRLPLSFGGGTKVEIK | 1.00 / 1.07 / 1.07 | 1.05 | 1/9 (3.92) |
| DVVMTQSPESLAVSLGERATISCGSSQSVLYESRNKNSVAWYQQKAGQPPKLLIYWASTRHSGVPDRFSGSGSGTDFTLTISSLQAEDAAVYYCQQYHRLSLSFGGGTKVEIK | 2.89 / 2.94 / 2.93 | 2.92 | 5/9 (4.71) |
| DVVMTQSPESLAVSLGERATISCNSSQSVLYESRNKNSVAWYQQKAGQPPKLLIYWASTRESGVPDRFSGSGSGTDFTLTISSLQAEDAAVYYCQQYHRLPQSFGGGTKVEIK | 2.78 / 2.67 / 3.12 | 2.86 | 4/9 (4.48) |
| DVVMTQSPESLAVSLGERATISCWSNQSVLYESRNKNSVAWYQQKAGQPPKLLIYWAYTRESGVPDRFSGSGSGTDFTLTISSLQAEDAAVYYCQQYHRLPLSFGGGTKVEIK | ND / ND / ND | ND | 1/9 (1.57) |
| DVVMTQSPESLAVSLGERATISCKSSQQVLYESRNKNSVRWYQQKAGQPPKLLIYWASTRESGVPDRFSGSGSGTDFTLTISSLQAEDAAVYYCQQYHRLPLSFGGGTKVEIK | 4.88 / ND / ND | 4.88 | 1/9 (3.27) |
| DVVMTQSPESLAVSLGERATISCKSSISVLYESRNKNSHAWYQQKAGQPPKLLIYWASTRESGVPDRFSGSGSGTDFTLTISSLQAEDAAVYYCQQGHRLPLSFGGGTKVEIK | 4.67 / ND / 4.53 | 4.60 | 1/9 (3.73) |
| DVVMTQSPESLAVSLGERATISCKSIQSVLYESRNKNSVAWYQQKAGQPPKLLIYWALTRETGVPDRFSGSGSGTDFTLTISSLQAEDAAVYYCQQYHRLPLSFGGGTKVEIK | ND / ND / 3.40 | 3.40 | 3/9 (4.16) |
| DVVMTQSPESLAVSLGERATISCKSSDSVLYLSRNKNSVAWYQQKAGQPPKLLIYWASTRESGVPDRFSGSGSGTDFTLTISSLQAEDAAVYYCQQYGRLPLSFGGGTKVEIK | 1.38 / 1.40 / 1.34 | 1.37 | 1/9 (3.36) |
| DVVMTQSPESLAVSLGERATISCKSSQSVLYTSRNKNSVAWYQQKAGQPPKLLIYWASTRESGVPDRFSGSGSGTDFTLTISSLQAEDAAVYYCQQYVRLPLSFGGGTKVEIK | 1.14 / 1.26 / 1.29 | 1.23 | 1/9 (4.67) |
| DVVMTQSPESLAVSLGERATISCKSSQSVNYSSRNKNSVAWYQQKAGQPPKLLIYWASTRESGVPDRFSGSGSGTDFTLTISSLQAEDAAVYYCSQYHRLPLSFGGGTKVEIK | 3.23 / 2.59 / 3.04 | 2.95 | 4/9 (4.00) |
| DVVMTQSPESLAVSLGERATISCLSSQSVLYESRNKNSVAWYQQKAGQPPKLLIYWASTRESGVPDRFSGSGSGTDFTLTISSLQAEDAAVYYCQHYHRLPLSFGGGTKVEIK | 2.88 / ND / ND | 2.88 | 0/9 |
| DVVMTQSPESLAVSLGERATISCKSSQSVLYESRNPNSFSWYQQKAGQPPKLLIYWASTRESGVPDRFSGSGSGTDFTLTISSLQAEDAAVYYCQQYHRLPLSFGGGTKVEIK | ND / ND / ND | ND | 1/9 (4.43) |

The 2 strongest on average among those seen in every replicate, once more:

VL	log10 Kd, replicates	log10 Kd (nM), mean	control signals
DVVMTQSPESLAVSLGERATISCKRSQSVLYEPRNDNSVAWYQQKAGQPPKLLIYWASTRESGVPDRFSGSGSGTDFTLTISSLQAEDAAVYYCQQYHRLPLSFGGGTKVEIK	1.00 / 1.07 / 1.07	1.05	1/9 (3.92)
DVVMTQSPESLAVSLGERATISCKSSQSVLYTSRNKNSVAWYQQKAGQPPKLLIYWASTRESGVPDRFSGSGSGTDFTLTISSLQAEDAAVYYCQQYVRLPLSFGGGTKVEIK	1.14 / 1.26 / 1.29	1.23	1/9 (4.67)

For reference, the parent read 0.65 as the reference entry and 1.68 as a member of this library. As a blank, each scFv also met three strains without target: over library AAYL50, 18% of these pairings were detected, typically at 4.19 and seldom below 2.99. For each scFv, signals with the empty controls are counted beside the result, with their mean in brackets.

Reference: Engelhart et al. 2022, doi:10.1038/s41597-022-01779-4. File: FLAb, binding data.